Results published in PubChem BioAssay AID2098 (Broad Institute, 2009).
Only a part is listed here, and it is no random draw. Some structures show a salt or complex split into parts, the way the source records it. Active and inactive are the calls of the source.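 Rule for the calls: active = more than half of replicate wells show activity change below -50%, luminescence cut by over half; inconclusive = some wells, but at most half, below -50%; inactive = no replicate well below -50%.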

Assay: HSF1 inhibitors in luciferase reporter cells, primary screen, cell-based, NIH3T3, luminescence (AID 2098);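 note: luciferase reports HSF-1 transcriptional activity via heat shock element; 0% = median of DMSO wells and -100% = zero luminescence signal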
Details: NIH3T3-HGL HSE-luciferase, MG132-induced, luminescence 8 h; hits give low values; screened at 7.5 µM (by protocol)

Compound | activity change, negative = inhibition
COc1ccc(OP(C)(=O)Nc2ccc(Br)cc2)cc1 (configuration not stated) | inactive: 2.06%
CCN(CC)CC(O)COC(=O)C(O)(c1ccccc1)C1CCCCC1 (configuration not stated) | inactive: -0.202%
CCc1ccc(OP(C)(=O)Nc2cccnc2)cc1 (configuration not stated) | inactive: -1.49%
CP(=O)(Oc1ccccc1)N1CCOC1=O (configuration not stated) | inactive: -2.27%
O=C(OCCCN1CCCC1)C(O)(c1ccccc1)C1CCCCC1 (configuration not stated) | inactive: -3.13%
COc1ccccc1OP(C)(=O)Nc1c(C)n(C)n(-c2ccccc2)c1=O (configuration not stated) | inactive: -1.07%
CP(=O)(Nc1ccc(Cl)cc1)Oc1ccc(F)cc1 (configuration not stated) | inactive: 2.29%
COc1ccccc1OP(C)(=O)Nc1ccccc1Br (configuration not stated) | inactive: -1.62%
CC(C)(C)c1ccc(OP(C)(=O)O)cc1 | inactive: -2.08%
CN(C)C(=O)c1c([N+](=O)[O-])cc([N+](=O)[O-])cc1[N+](=O)[O-] | inactive: 15.5%
Nc1ccc2c(ccc3cccnc32)n1.O=[N+]([O-])c1cc([N+](=O)[O-])c(O)c([N+](=O)[O-])c1 | inactive: -20.1%
CP(=O)(OC12CC3CC(CC(C3)C1)C2)OC12CC3CC(CC(C3)C1)C2 | inactive: 4.03%
CCOC(=O)c1ccc(NP(C)(=O)Oc2ccc(Cl)cc2)cc1 (configuration not stated) | inactive: 0.503%
COc1ccc(OP(C)(=O)Nc2ccccc2Br)cc1 (configuration not stated) | inactive: 10.9%
COc1ccccc1OP(C)(=O)Nc1ccc(C)c(C)c1 (configuration not stated) | inactive: 3.59%
Cc1nc2ccc3ccccc3c2o1.O=[N+]([O-])c1cc([N+](=O)[O-])c(O)c([N+](=O)[O-])c1 | inactive: 37.8%
CCCCCCCCCCCCCCCC1C[N+](C)(C)CCOP(C)(=O)O1 (configuration not stated) | inactive: -3.56%
CP(=O)(Nc1ccc(Cl)cc1Cl)Oc1ccccc1 (configuration not stated) | inactive: 2.91%
CP(=O)(OCCOc1ccccc1)OCCOc1ccccc1 | inactive: 19%

Compound | activity change, negative = inhibition
COc1ccccc1OP(C)(=O)Nc1ccc(Br)cc1 (configuration not stated) | inactive: 9.22%
CN(C)CCOC(=O)C(O)(c1ccccc1)C1CCCC1 (configuration not stated) | inactive: -4.61%
COc1ccc(OP(C)(=O)Nc2ccccn2)cc1 (configuration not stated) | inactive: -5.35%
Cc1c(NP(C)(=O)Oc2ccc(C(C)C)cc2)c(=O)n(-c2ccccc2)n1C (configuration not stated) | inactive: 3.81%
CCc1ccc(OP(C)(=O)O)cc1 | inactive: -11.6%
COc1ccccc1OP(C)(=O)Nc1ccc(C)cc1C (configuration not stated) | inactive: -5.58%
CP(=O)(Nc1ccccn1)Oc1ccccc1 (configuration not stated) | inactive: -1.92%
CC(C)c1ccc(OP(C)(=O)Nc2ccc(SC(F)(F)F)cc2)cc1 (configuration not stated) | inactive: 13.5%
CP(=O)(Nc1ccccc1F)Oc1ccccc1 (configuration not stated) | active: -82.6%
O=C(OCCN1CCN(CCOCc2ccccc2)CC1)C(O)(c1ccccc1)c1ccccc1 | inactive: -7.79%
O=C(OC1CN2CCC1CC2)c1ccc([N+](=O)[O-])cc1 (configuration not stated) | inactive: -3.38%
COc1ccc2c(c1O)-c1c(O)c(OC)cc3c1[C@H](C2)[N+](C)(C)CC3.O=[N+]([O-])c1cc([N+](=O)[O-])c([O-])c([N+](=O)[O-])c1[O-] | inactive: -1.53%
COc1ccc(OP(C)(=O)Nc2ccc(SC(F)(F)F)cc2)cc1 (configuration not stated) | inactive: 25.7%
CCOC(=O)c1ccc(NP(C)(=O)Oc2ccc(F)cc2)cc1 (configuration not stated) | inactive: -0.00234%
CCN(CC)CCCOC(=O)C(O)(c1ccccc1)C1CCCCC1 (configuration not stated) | inactive: -8%
CCCCCOc1ccc(NP(C)(=O)Oc2ccc(Cl)cc2Cl)cc1 (configuration not stated) | inactive: -3.2%
O=[N+]([O-])c1cc([N+](=O)[O-])c(OC2CCCCC2O)c([N+](=O)[O-])c1 (configuration not stated) | inactive: -14.9%
CP(=O)(Nc1ccccc1)Oc1ccc(F)cc1 (configuration not stated) | inactive: -3.63%
COc1ccc(OP(C)(=O)Nc2cccc(Br)c2)cc1 (configuration not stated) | inactive: 24.9%

Compound | activity change, negative = inhibition
COc1ccc(NP(C)(=O)Oc2ccccc2OC)cc1 (configuration not stated) | inactive: -2.93%
CN(C)CCOC(=O)C(O)(c1ccccc1)C1CCCCC1 (configuration not stated) | inactive: -7.73%
Cc1cc(-c2cccc3ccccc23)c(C)cn1.O=[N+]([O-])c1cc([N+](=O)[O-])c(O)c([N+](=O)[O-])c1 | inactive: -2.18%
O=[N+]([O-])c1cc([N+](=O)[O-])c(NCC2CCS(=O)(=O)C2)c([N+](=O)[O-])c1 (configuration not stated) | inactive: -5.59%
O=[N+]([O-])c1ccc(OP2(=O)COCCO2)cc1 (configuration not stated) | inactive: 3.44%
CP(=O)(Nc1ccc(SC(F)(F)F)cc1)Oc1ccc(F)cc1 (configuration not stated) | inactive: -6.93%
CCOP(C)(=S)SCC(=O)NC(C)(CC)C(=O)O (configuration not stated) | inactive: -6.66%
CP(=O)(Nc1ccc2c(c1)OCCO2)Oc1ccccc1 (configuration not stated) | inactive: -16%
Cc1ccccc1NP(C)(=O)Nc1ccccc1C | inactive: 3.38%
O=[N+]([O-])c1cc([N+](=O)[O-])c(-n2nnc3ccccc32)c([N+](=O)[O-])c1 | inactive: -2.55%
O=[N+]([O-])c1cc([N+](=O)[O-])c(-c2cnn(-c3ccccc3)c2)c([N+](=O)[O-])c1 | inactive: 0.081%
CCOC(=O)C(CC)C1=NC(C)(C)Cc2ccccc21.O=[N+]([O-])c1cc([N+](=O)[O-])c(O)c([N+](=O)[O-])c1 (configuration not stated) | inactive: -2.78%
O=[N+]([O-])c1cc([N+](=O)[O-])c(Nc2nnnn2CCO)c([N+](=O)[O-])c1 | inactive: -3.65%
COc1ccccc1OP(C)(=O)Nc1c(C)cccc1C (configuration not stated) | inactive: -0.66%
CN1CCCCC1COC(=O)C1(O)c2ccccc2CCc2ccccc21 (configuration not stated) | inactive: 2.74%
CCCOc1ccc(NP(C)(=O)Oc2ccc(Cl)cc2)cc1 (configuration not stated) | inactive: 3.14%
CP(=O)(Nc1ccc(SC(F)(F)F)cc1)Oc1ccccc1 (configuration not stated) | inactive: 30.4%
O=C(O)c1cccc(Nc2c([N+](=O)[O-])cc([N+](=O)[O-])cc2[N+](=O)[O-])c1 | inactive: 1.64%
CC1=NCCc2c1[nH]c1ccccc21.O=[N+]([O-])c1cc([N+](=O)[O-])c(O)c([N+](=O)[O-])c1 | inactive: -5.98%
